From patent US7964630B2, “Topical application agents against mimic and age-related wrinkles” (DSM IP Assets B.V., priority 2004, dated 2011)

Test system: co-culture model of human muscle cells and neurons from the spinal marrow of rat embryos
Test: Efficacy test: frequency of muscle contractions in a nerve-muscle co-culture model
Format: cell-based, human (myoblasts), rat (embryo spinal explants)
Conditions: contractions counted for 30 seconds, compared to number before incubation, means of 3 measurements; for Variation Δ [in %] of the number of muscle contractions (1 min): 1 minute after incubation; for Variation Δ [in %] of the number of muscle contractions (2 h): 2 hours after incubation; for Variation Δ [in %] of the number of muscle contractions (48 h): 48 hours after incubation
Description: Culture conditions: 37° C., 5% CO2 In order to test the efficacy of the compounds of the present invention, a co-culture model of human muscle cells on one hand and neurons from the spinal marrow of rat embryos on the other hand was established. Normal human muscle cells (myoblasts) were cultured in gelatine-coated 24-well plates until a monolayer of myofibrils (from fused muscle cells) had formed. Afterwards, an explant of the spinal marrow of a 13 day-old rat embryo with dorsal root ganglia was placed on the muscle cell monolayer. After one day of co-culture, the first axons were seen to grow out of the explant to come in contact with muscle cells. The first contractions appeared after 5 days. […] At this stage of development, the myofibrils performed regular contractions and the model was used for the tests.

H-β-Ala-Pro-Dab-NHBzl.2TFA was tested, and the “Variation Δ [in %] of the number of muscle contractions (1 min)” value (“Variation Δ [in %] of the number … (1 min)” below) (0.1 mM) was 86%, the “Variation Δ [in %] of the number of muscle contractions (2 h)” value (“Variation Δ [in %] of the number … (2 h)” below) (0.1 mM) was 4% and the “Variation Δ [in %] of the number of muscle contractions (48 h)” value (from here on “Variation Δ [in %] of the number … (48 h)”) (0.1 mM) was 4%. For the same substance, the “Variation Δ [in %] of the number … (1 min)” value (0.5 mM) was 96%, the “Variation Δ [in %] of the number … (2 h)” value (0.5 mM) was 0% and the “Variation Δ [in %] of the number … (48 h)” value (0.5 mM) was 0%. The “Variation Δ [in %] of the number … (1 min)” value (1.0 mM) was 24%, the “Variation Δ [in %] of the number … (2 h)” value (1.0 mM) was 0% and the “Variation Δ [in %] of the number … (48 h)” value (1.0 mM) was 0%.
